Values quoted from earlier work as cited in publication PMC8453943 (Clinical Pharmacology in Drug Development, 2021).

System: EGFR
Conditions: NSCLC with EGFR exon 20 insertion mutations; cited from earlier work

In the case of `COc1cc2ncnc(Nc3ccc(F)c(Cl)c3)c2cc1OCCCN1CCOCC1` [gefitinib], the Median progression-free survival is given as “≈ 2 months”.
